Assay type in all cases: cell-based
Assay [1] relates to HEK 293A cells. Nature of the assay: Ensemble whole cell patch clamp.
Assay [2] has as its system HEK 293A cells. Nature of the assay: Fluorescence microscopy of patched cells.
The test system of assay [3] is HEK 293A cells. The method in brief: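 HEK 293A cells (passages 12–17) detached with detachin, rested in serum-free medium, then 1.5, 5, 10 or 15 million cells in ECS incubated 15 min with graded detergent. Cells were pelleted at 1000 rpm, resuspended in ECS and patched on an IonFlux 16 ensemble whole-cell system with K-aspartate intracellular solution. Time-averaged current over the first 4 min served as the permeability read-out. Detergent giving a 1 nA rise ×15 estimated the onset. Onset concentration vs lipid concentration was fitted linearly: slope Rb, intercept Dw.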

We go through one molecule from publication PMC3983356 (The Journal of Physical Chemistry. B, 2014).

Structures are written as SMILES. “And” between values parts separate entries of the source, which are not always exact repeats. Equal values may be shown once.

For `CCCCCCCCCCCCCCCC[N+](C)(C)C` [CTAB, cetyltrimethylammonium bromide], the “behavior of current traces relative to groups” value in the assay with HEK 293A cells [1] (0.01 mM CTAB) is “midway between groups I and II”. In addition, the “steady current level relative to open channel level” value with HEK 293A cells [1] (0.2 mM SDS, 0.1, 1 and 10 mM CTAB) is on record as “approximately half the open channel levels”. In addition, the “relative activity for plasma membrane current induction (SDS:CTAB:ORB)” value in the assay with HEK 293A cells [1] (superfusion/flow conditions, as function of concentration) is on record as 20. In addition, the “state of cells after detergent treatment (PKH26 fluorescence)” value is listed as “intact” with HEK 293A cells [2] (0.04 mM SDS, 0.001 mM CTAB, 15 min); “intact” with HEK 293A cells [2] (0.2 mM SDS, 0.1–10 mM CTAB, 15 min); “intact” in the assay on HEK 293A cells [2] (0.001 and 0.01 mM CTAB). For the same molecule, the “relative ratio of lipid to detergent in cell membranes at the onset of membrane permeability (SDS:CTAB:ORB)” value with HEK 293A cells [3] (quiescent conditions) is reported as 7. Further, the “Rb ± standard error (ratio of detergent to lipid in the bilayer at the onset of increased permeability)” value with HEK 293A cells [3] (quiescent, 15 min pretreatment, 1.5–15 million cells) was 0.3 and 0.3 ± 0.1.
